Experimental data: PMC4543428 (European journal of pharmacology, 2015)

Amino acid sequences for entries named in this document (tags omitted).
UniProt O55242, whole entry: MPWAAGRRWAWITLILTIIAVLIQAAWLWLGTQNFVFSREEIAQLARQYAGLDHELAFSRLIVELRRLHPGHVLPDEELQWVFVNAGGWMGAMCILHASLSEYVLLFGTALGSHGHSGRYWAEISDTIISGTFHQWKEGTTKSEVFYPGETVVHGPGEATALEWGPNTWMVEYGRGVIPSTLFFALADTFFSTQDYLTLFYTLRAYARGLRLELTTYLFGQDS

Columns and labels:
sigma2 receptor = target: T1, sigma2 receptor (Mus musculus, UniProt Q8VD00); assay: Sigma2 receptor competition binding against [3H]DTG /; conditions: mouse lung membranes; sigma2 Ki / sigma1 Ki
T1 sequence (Q8VD00 1-176): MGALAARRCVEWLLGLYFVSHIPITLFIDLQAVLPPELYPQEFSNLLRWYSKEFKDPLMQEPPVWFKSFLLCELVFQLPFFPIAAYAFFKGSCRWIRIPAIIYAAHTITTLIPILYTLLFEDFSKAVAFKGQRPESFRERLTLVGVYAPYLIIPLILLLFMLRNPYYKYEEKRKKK

sigma1 receptor = sigma1 receptor (Mus musculus, UniProt O55242); conditions: 1.0 nM [3H](+)-pentazocine; 6 h; 37 °C; mouse lung membranes

Substance: (−)-cocaine hydrochloride
- Selectivity Ki Ratio σ2/σ1 (sigma2 receptor): 30
- Sigma1 nH (pseudo-Hill slope) (sigma1 receptor): 1.18 ± 0.19
